Laboratory results published in patent publication US10406185B2, “Cancer therapy with a parvovirus combined with a BCL-2 inhibitor” (DEUTSCHES KREBSFORSCHUNGSZENTRUM, priority 2013, dated 2019).

Test system: AsPC-1 xenografts
Settings: nude rats; ABT-737 50 mg/kg every second day for 14 days; H-1PV 2.5 10^8 pfu/animal intratumoral
Experimental: 5×10^6 AsPC-1 cells were subcutaneously injected in the right flank of 5 week-old female nude rats. After 1 week (when tumour reached the volume of 200-400 mm^3), tumour-bearing animals were randomized in to four groups (n=8). […] Tumour volume was measured with a digital calliper on the days indicated and calculated according to the formula: volume […]=width^2× length/2. Rats were sacrificed when the tumour mass reached 4000 mm^3, in keeping with animal welfare regulations. Data shown represents the average values with standard deviation bars.

## CN(C)CC[C@H](CSc1ccccc1)Nc1ccc(S(=O)(=O)NC(=O)c2ccc(N3CCN(Cc4ccccc4-c4ccc(Cl)cc4)CC3)cc2)cc1[N+](=O)[O-] [ABT-737]
  therapeutic effect on established tumours: failed to have a significant therapeutic effect
